Biological target: T1, Cytochrome P450 1B1 (Homo sapiens, UniProt Q16678)
T1 sequence (Q16678 whole entry): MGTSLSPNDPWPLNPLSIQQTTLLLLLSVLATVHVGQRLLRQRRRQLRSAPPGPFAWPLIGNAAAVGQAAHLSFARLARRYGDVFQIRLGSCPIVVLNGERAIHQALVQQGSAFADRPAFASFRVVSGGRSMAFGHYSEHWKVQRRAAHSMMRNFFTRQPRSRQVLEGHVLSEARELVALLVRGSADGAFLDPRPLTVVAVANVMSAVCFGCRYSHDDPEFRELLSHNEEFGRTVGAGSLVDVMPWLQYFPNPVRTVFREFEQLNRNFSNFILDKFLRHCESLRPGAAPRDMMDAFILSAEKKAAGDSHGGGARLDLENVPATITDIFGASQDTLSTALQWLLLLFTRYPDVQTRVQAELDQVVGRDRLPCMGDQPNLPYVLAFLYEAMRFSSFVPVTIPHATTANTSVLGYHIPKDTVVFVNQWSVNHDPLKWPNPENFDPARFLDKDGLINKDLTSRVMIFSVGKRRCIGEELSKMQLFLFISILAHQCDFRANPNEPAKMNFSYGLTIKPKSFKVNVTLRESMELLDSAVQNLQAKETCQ
Assay: Inhibition of recombinant human CYP1B1 incubated for 45 mins using 7-ethyl-O-resorufin substrate in presence of NADPH regenerating system by fluorescence based ethoxyresorufin-O-deethylase assay

## O=c1cc(-c2ccccc2)oc2c1ccc1ccccc12 [ALPHA-NAPHTHOFLAVONE]
  IC50: 240 nM

Source: ChEMBL document CHEMBL4196212, “Targeting Cytochrome P450 (CYP) 1B1 Enzyme with Four Series of A-Ring Substituted Estrane Derivatives: Design, Synthesis, Inhibitory Activity, and Selectivity” (J Med Chem, 2018)
